# Patent US20250084169A1 (published 2025)
# T1: recombinant human Fc gamma RIIb/c (CD32b/c) (human, UniProt P31994 46-217)
# T1 construct: also called FcRγIIb; FcgRIIb/c
# T1 sequence (looked up): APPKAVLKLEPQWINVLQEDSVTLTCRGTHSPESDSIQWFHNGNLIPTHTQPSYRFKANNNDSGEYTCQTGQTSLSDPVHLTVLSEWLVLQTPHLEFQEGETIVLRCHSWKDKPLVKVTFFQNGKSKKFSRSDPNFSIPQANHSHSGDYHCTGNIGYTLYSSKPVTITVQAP
# T2: recombinant human Fc gamma RIIa (CD32a) 131R (human, UniProt P12318 36-218)
# T2 construct: also called Fc gamma RIIa (CD32) (Arg167)
# T2 sequence (looked up): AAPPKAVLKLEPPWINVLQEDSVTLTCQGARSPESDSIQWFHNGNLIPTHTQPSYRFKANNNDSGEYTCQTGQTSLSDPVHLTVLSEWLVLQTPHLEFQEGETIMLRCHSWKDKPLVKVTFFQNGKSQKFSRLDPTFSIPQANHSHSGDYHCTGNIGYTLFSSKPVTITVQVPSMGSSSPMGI
# Experiments:
# Test in all cases: SPR (Carterra LSA), antibody captured via anti-CH1, monovalent
# [1] = target: T3, recombinant human Fc gamma RIIIb (CD16b) (human, UniProt O75015 17-200)
# T3 construct: also called FcRγIIIb
# [2] = target: T4, recombinant human Fc gamma RIIIa (CD16a) 158V (human, UniProt P08637 17-208)
# T4 construct: also called FcRγIIIa; FcgRIIIa 158 V
# [3] = target: T5, recombinant human Fc gamma RIIIa (CD16a) 158F (human, UniProt P08637 17-208)
# T5 construct: also called FcRγIIIa
# [4] = target: T1, recombinant human Fc gamma RIIb/c …
# [5] = target: T6, recombinant human Fc gamma RI (CD64) (human, UniProt P12314 16-288)
# T6 construct: also called FcRγI; FcgRI
# [6] = target: T2, recombinant human Fc gamma RIIa (CD32a) …
binder,measurement,setting,value
"HB2174 (bispecific antibody, human IgG1, kappa, also called Protein ID 21-74; HB2174 (wild-type)) heavy 1: QVQLVQSGGGVVQPGRSLRLSCAASGVSLPDYGVSWVRKAPGKGLEWVAVIWGSETTYYNSALKSRFTISRDNSKNTLYLQMSSLRAEDTAVYYCAKHYYYGGSFAMDYWGQGTLVTVSSASTKGPSVFPLAPSSKSTSGGTAALGCLVKDYFPEPVTVSWNSGALTSGVHTFPAVLQSSGLYSLESVVTVPSSSLGTQTYICNVNHKPSNTKVDKKVEPKSCTDWSPYADQSIKVRISLKSALGDKAYEWNDNEMYLFRSSVAYAMRQYFLKVKNQMILFGEEDVRVANLKPRISFNFFVTAPKNVSDIIPRTEVEKAIRMSRSRINDAFRLNDNSLEFLGIQPTLGPPNQPPVSTSTSPTRSMAPGAVHLPQPVSTRDKTHTCPPCPAPELLGGPSVFLFPPKPKDTLMISRTPEVTCVVVDVSHEDPEVKFNWYVDGVEVHNAKTKPREEQYNSTYRVVSVLTVLHQDWLNGKEYKCKVSNKALPAPIEKTISKAKGQPREPQVCTLPPSRDELTKNQVSLSCAVKGFYPSDIAVEWESNGQPENNYKTTPPVLDSDGSFFLVSKLTVDKSRWQQGNVFSCSVMHEALHNRFTQKSLSLSPG heavy 2: not shown light 1: DIQMTQSPSSLSASVGDRVTITCRASQDISKYLNWYQEKPGKAIKLLIYHTSRLHSGVPSRFSGSGSGTDFTLTISSLQPEDFATYYCQQGATLPYTFGPGTKLEIKRTVAAPSVFIFPPSDEQLKSGTASVKCLLNNFYPREAKVQWKVDNALQSGNSQESVTEQDSKDSTYSLSSTLTLSKADYEKHKVYACEVTHQGLSSPVTKSFNRGEC light 2: QVQLQQPGAELVKPGASVKMSCKASGYTFTSYNMHWVKETPGRGLEWIGAIYPGNGDTSYNQKFKGKATLTADKSSSTAYMQLSSLTSEDSAVYYCARSTYYGGDWYFNVWGAGTLVTVSSASVAAPSVFIFPPSDEQLKSGTASVECLLNNFYPREAKVQWKVDNALQSGNSQESVTEQDSKDSTYSLSSTLTLSKADYEKHKVYACEVTHQGLSSPVTKSFNRGEC",Fold,[1],0.5 fold
same,Fold,[2],0.6 fold
same,Fold,[3],0.7 fold
same,Fold,[4],2 fold
same,Fold,[5],0.5 fold
same,Fold,[6],0.7 fold
